# Values quoted from earlier work in publication PMC7285913, “In vitro hepatic biotransformation of the algal toxin pectenotoxin-2” (Toxicon: X, 2020).
# Conditions: compared with PTXs given TEF of 1; ref Alexander et al., 2009; cited from earlier work
substance,measurement,value
7-epi-pectenotoxin-2 seco acid [7-epi-PTX-2 SA],relative toxicity,much less toxic
